# Source: ChEMBL document CHEMBL5316301, “Dual Nicotinamide Phosphoribosyltransferase (NAMPT) and Indoleamine 2,3-Dioxygenase 1 (IDO1) Inhibitors for the Treatment of Drug-Resistant Nonsmall-Cell Lung Cancer” (J Med Chem, 2023)
# Protein sequences, listed by entry. Tags and fused reporters are not part of them.
# UniProt P14902, whole entry, looked up: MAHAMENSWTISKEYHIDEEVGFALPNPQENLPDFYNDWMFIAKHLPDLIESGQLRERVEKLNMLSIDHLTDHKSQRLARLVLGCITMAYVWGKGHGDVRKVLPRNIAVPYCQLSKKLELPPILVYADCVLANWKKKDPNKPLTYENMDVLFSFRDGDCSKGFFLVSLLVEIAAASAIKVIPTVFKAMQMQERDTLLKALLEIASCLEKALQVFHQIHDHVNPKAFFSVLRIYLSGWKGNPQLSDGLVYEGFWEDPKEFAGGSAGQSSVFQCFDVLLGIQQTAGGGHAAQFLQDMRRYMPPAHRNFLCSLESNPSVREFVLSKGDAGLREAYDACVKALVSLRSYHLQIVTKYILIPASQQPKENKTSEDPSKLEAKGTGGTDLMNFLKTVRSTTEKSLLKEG
# Activity calls are given as the source filed them. The rule behind the calls is not given here.
# What was measured:
# [1] = target: T1, Indoleamine 2,3-dioxygenase 1 (Homo sapiens, UniProt P14902); experiment: Potency index, ratio of epacadostat IC50 to test compound IC50 for inhibition of human recombinant IDO1
# [2] = target: T1, Indoleamine 2,3-dioxygenase 1; experiment: Potency index, ratio of epacadostat IC50 to test compound IC50 for inhibition of human recombinant IDO1 in human HeLa cells; type: cell-based
# A549 [3] = experiment: Antiproliferative activity against NAMPT inhibitor-resistant A549 cells assessed as reduction in cell viability in presence of verapamil; type: functional, cell-based; settings: Homo sapiens
# A549 [4] = experiment: Downregulation of ATP level in human A549 cells measured for 48 hrs; type: functional, cell-based; settings: dose 10-40 nM
# A549 [5] = experiment: Downregulation of NAD+ level in human A549 cells at 10 to 40 nM measured for 48 hrs; type: functional, cell-based; settings: dose 10-40 nM
# A549 [6] = experiment: Antimigratory activity against NAMPT inhibitor-resistant A549 cells assessed as reduction in cell migration at 40 uM incubated for 24 hrs in presence of epacadostat by inverted microscopic analysis; type: functional, cell-based; settings: Homo sapiens
SMILES,Ratio IC50 [1],Ratio IC50 [2],Activity (A549 [3]),Activity (A549 [4]),Activity (A549 [5]),Activity (A549 [6])
O=C(NCCCCCCNc1nonc1/C(=N/O)Nc1ccc(F)c(Br)c1)c1ccc2nccn2c1,3,8.6,,,,
O=C(/C=C/c1cccnc1)NCCCCC1CCN(C(=O)c2ccccc2)CC1 [DAPORINAD],,,inactive,Dose-Dependent Effect,Active,Active
